Experiments:
[1] = Free energy of hydration predicted with the QM-parameterized force field model (ARROW FF), classical MD and PIMD simulation in a water box
[2] = Free energy of hydration by COSMO implicit solvent model (MolPro ver. 2012); settings: absolute error vs Exp (hydration)
[3] = Free energy of hydration by Solvation Model Dielectric (SMD) implicit solvent model; settings: absolute error vs Exp (hydration)
[4] = Free energy of hydration by Polarizable Continuum Model (PCM); settings: absolute error vs Exp (hydration)
[5] = Free energy of hydration by COSMO-RS
[6] = Free energy of hydration by Free Energy Machine Learning Model (FML); settings: absolute error vs Exp (hydration)
[7] = Table 3; free energy of solvation in cyclohexane, experimental; cited from earlier work

Compound: 1-Butanol
- water Arrow MD Error ([1]; Table 3, absolute error of MD hydration free energy vs experiment): 0.85 kcal/mol
- water Arrow PIMD8 Error ([1]; Table 3, absolute error of PIMD8 hydration free energy vs experiment): 0.06 kcal/mol
- Arrow PIMD8 Error ([1]; absolute error vs Exp (hydration)): 0.06 kcal/mol
- COSMO/Molpro Error [2]: 1.83 kcal/mol
- SMD Error [3]: 0.82 kcal/mol
- PCM Error [4]: 1.62 kcal/mol
- COSMO-RS error [5]: 0.10 kcal/mol
- FML error [6]: 0.00 kcal/mol
- CHEX Exp (solvation) [7]: -3.52 kcal/mol

Compound: C1CCCC1 [Cyctopentane]
- COSMO/Molpro Error [2]: 1.83 kcal/mol
